This is a selection; strong and weak results do not stand in their true shares. Results with a measured potency or affinity are listed apart. Activity calls are given as the source filed them.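 How the source made its calls: active means inhibition of at least 50% with at least 30 cells and total cytoplasm GFP at most 10,000,000; inconclusive means under 30 cells or total GFP of 10,000,000 plus; inactive means the rest.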

Chains of the proteins cited; added tags and fusions are not shown.
UniProt Q9HC97, whole entry: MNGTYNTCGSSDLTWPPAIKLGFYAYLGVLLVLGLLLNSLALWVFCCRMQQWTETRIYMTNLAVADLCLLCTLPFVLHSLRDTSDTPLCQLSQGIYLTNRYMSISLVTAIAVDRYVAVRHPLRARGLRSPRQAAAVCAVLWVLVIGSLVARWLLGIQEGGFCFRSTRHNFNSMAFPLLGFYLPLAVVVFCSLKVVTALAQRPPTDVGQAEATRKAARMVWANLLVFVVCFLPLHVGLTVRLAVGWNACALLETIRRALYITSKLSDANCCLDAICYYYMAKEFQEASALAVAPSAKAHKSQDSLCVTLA

The target in this assay is G-protein coupled receptor 35 (Homo sapiens) (UniProt Q9HC97). Nature of the assay: inhibition of zaprinast-stimulated GPR35 beta-arrestin translocation – imaging, U2OS, beta-arrestin-GFP, zaprinast agonist, primary screen (AID 2058). The note with it: zaprinast antagonism, at 10 µM, stronger effect = higher value.
Broadly, the inhibition is the relative decrease from the control value, in per cent. Regarding `Cc1c2c(nc3ccccc13)SC(C(Cl)Cl)C2` (stereo unspecified), the inhibition is inactive: 11.1%.

The values above are taken from PubChem BioAssay AID2058 (Sanford-Burnham Center for Chemical Genomics, 2009).
